## Apparent affinities of Ab-14 variants for a coronavirus HR2 peptide

Values reported by Li et al. 2023, doi:10.1038/s41467-023-39022-2 (FLAb copy).

The target is the same throughout: PDVDLGDISGINAS, from the HR2 region of SARS-CoV-2 spike.

Each scFv is VH, the linker GGGGSGGGGSGGGGS, VL, as in the parent Ab-14, and differs from it in the CDRs of the light chain only.
VH: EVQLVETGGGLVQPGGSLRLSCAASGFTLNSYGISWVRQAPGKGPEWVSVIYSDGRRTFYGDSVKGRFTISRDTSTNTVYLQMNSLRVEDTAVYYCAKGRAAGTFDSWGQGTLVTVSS
VL: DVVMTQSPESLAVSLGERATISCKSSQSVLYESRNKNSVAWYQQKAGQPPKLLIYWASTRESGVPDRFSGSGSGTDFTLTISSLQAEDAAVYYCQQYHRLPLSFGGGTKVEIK

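The parent was found by panning a naive human phage display library on the peptide. These sequences belong to a second round, designed from the earlier measurements on random variants of the parent. Group labels follow the data file (Ctrl: baseline library sampled from a position-specific scoring matrix, with some repeated check sequences; Rand: our label for a block that the file lists under HC and that is probably the random mutants of the ten best first-round binders; En: ensemble of fine-tuned language models; GP: Gaussian process model; HC: hill climbing; Gen: genetic algorithm; Gibbs: Gibbs sampling; a sequence that several methods proposed may carry one label only). The assay is AlphaSeq: two haploid yeast populations carry antibody and antigen on their surface. Binding brings cells together so that they mate, and sequencing counts the barcode pairs among the diploids. Scores were corrected for input abundance and mapped to Kd with protein pairs of known affinity run in the same pool. Each pool was mated in six replicate cultures.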

The parent's light chain CDRs are KSSQSVLYESRNKNSVA, WASTRES, QQYHRLPLS; each variant's own CDRs replace them letter for letter. Numbers give log10(Kd / nM), so 0 is 1 nM and 3 is 1 µM. Smaller is tighter. Replicates are averaged; those with no signal do not enter the mean. Where no diploid with the target was found in any replicate, the entry reads "no signal": below detection, most likely a poor binder, though not proof of it. As a blank, each scFv also met three strains without target: over all light chain designs, 4% of these pairings were detected, typically at 2.64 and seldom below 1.59. A sequence measured in both rounds can read differently, since the two assays cover different ranges. In the paper, a design with two or fewer of six values counts as a poor binder. The parent sequence was in this pool as ten entries: three were never detected, three once, and four in most replicates, with averages from 0.34 to 2.37.

log10 Kd (nM), mean	replicates with signal	CDR-L1	CDR-L2	CDR-L3	group
0.15	6 of 6	KVSVSNPYETRNKNSVA	EASTREE	QQYHRLPLS	GP_Gibbs
0.68	6 of 6	KSSQSCLYESGNKNSVA	HASTRES	QQYHRLPLS	GP_HC
1.10	6 of 6	MISQMYNMGSFAINSVA	QASLRNE	QQYDRLPLT	En_Gen
0.05	6 of 6	KLSMITGHMSMAKDNVA	EMVTREK	QQYNRLPLS	En_Gen
1.44	6 of 6	KLYMSTGYESRNQDSIA	DNSTRGR	QQYHRLPLS	En_HC
0.66	6 of 6	NIYHGVTGTSRKGNSVA	QAETRLD	QQYHRLPLM	En_HC
0.48	6 of 6	KNWISHLGESRNKNAVA	NASTREE	QQYHRLPLS	GP_Gibbs
0.20	6 of 6	KLRQSTKYESRNQNSVA	QASTRES	QQYHRLPLS	GP_HC
0.38	6 of 6	KSLQSVLYESRNKNSVA	GASTRED	QQYGRLPLS	GP_HC
0.41	6 of 6	KLMWSMEYESRNQNSVA	SASYRES	QQYHRLPLS	GP_Gibbs
2.12	1 of 6	KSSQSVLYESRNKNSVA	WASNRES	QQYHRLPLS	Ctrl
0.72	6 of 6	TISQMTSLFSQSINNVA	EVSMREE	QQYDRLPLV	En_Gen
0.73	6 of 6	LSSISYPYESPNKNSVA	EASTRES	QQYHRLPLS	GP_HC
2.30	2 of 6	KISFWSYRGSLWHNNIA	GGSQRAE	QQYSRLPLN	En_Gibbs
0.96	3 of 6	KMSQSKLMESRNKNSVA	WASTRES	FSYHRLPLS	Ctrl
no signal	0 of 6	KSFQSVLYESRNKNSVA	WASTREW	QQYHRLPLS	Ctrl
-0.11	6 of 6	HLSGVVLYESRNKNSVA	NASTRES	QQYHRLPLS	GP_HC
1.75	6 of 6	MLSQLFMYGSRNYNSVA	QASTRES	QQYHRLPLI	En_HC
2.14	6 of 6	KISQSVPYEDRNFNSVA	HASYRIS	QQYHRLPLS	GP_Gibbs
1.03	6 of 6	KIQWYQLEMRDPGSAVA	EASVRYN	QQYWRLPLE	En_Gibbs
-0.05	6 of 6	KIHQSDLYEDRNINSVA	SASQRES	QQYHRLPLS	GP_Gibbs
0.21	6 of 6	KLGATMNTEMTKRNNVA	DLVMREN	QQYFRLPLS	En_Gen
0.01	6 of 6	KYEFSVLELSRNSNSVA	NASTREE	QQYHRLPLS	GP_Gibbs
-0.16	6 of 6	KSSQSVLNEPRNKNSVA	DASTRES	QQYHRLPLS	GP_HC
0.13	6 of 6	MLTRFNLQNQGISNNIA	DTNQVQE	QQYFRLPFA	En_Gibbs
no signal	0 of 6	KLRQSTLYESRNKNSVA	NASTRES	QQWHRLPLS	GP_HC
1.44	6 of 6	MISQLFMYGSRNYNSIA	QAQTREK	QQYDRLPLI	En_HC
2.43	5 of 6	KSSQSVLYESRNKNSVA	WATTRLA	QQYHRLPLS	Ctrl
1.81	4 of 6	ISSQSILDESRNQNSVA	WASTRES	QQYHSLPLS	Ctrl
1.18	6 of 6	KVEQSTLYESRNKNSVA	WASTRES	QQYHRLPLS	GP_HC
0.98	6 of 6	KLGQMTAIESRNNNSVA	QMDTREK	QQYDRLPLS	En_HC
0.66	6 of 6	HSSESVEQESSNKNSVA	WASTRES	QQYHKLPLS	Ctrl
0.92	6 of 6	TISGVMMQMSHSKNNVA	EVSMRLE	QQYFRLPLE	En_Gen
1.21	6 of 6	KFSQWVLYESRHKNSVA	NASTRES	QQYHRLPLS	GP_HC
0.13	6 of 6	KLEQSVLYESRNKNSVA	EASTRES	QQYHRLPLS	GP_Gen
-0.72	6 of 6	KASQSWLYESRNKNSVA	GASTREN	QQYHRLPLS	GP_HC
1.33	6 of 6	NLVERAQMQDSGRQAIA	NAHARCT	QQYFHLPLT	En_Gibbs
0.34	6 of 6	KASMLHDYESRNKNSVA	QASTRES	QDYHRLPLS	GP_Gibbs
1.69	6 of 6	KLGQMTAIESRNNNSVA	QMDTRES	QQYHRLPLS	En_HC
1.81	6 of 6	HITYGMMVAGRHHSSIA	QAENRAK	QQYDRLPLA	En_Gen
-0.12	6 of 6	KLSQLGLYGQRNKMSVA	DASTRED	QQYHRLPLS	GP_Gibbs
0.58	6 of 6	KSSQSVKMESRNKNSVA	EASTRES	QQYHRLPLS	GP_HC
1.12	6 of 6	KFSQSVLYESRTKNVVA	NASTRES	QQYHRLPLS	Rand
-0.48	6 of 6	KLSQSVLYESRNKNNVA	GASQRES	QQYHRLPLS	GP_Gen
0.08	6 of 6	KQSQSVLYEDRNKNSVA	DASTRES	QQYHRLPLS	GP_HC
-0.24	6 of 6	HSSPSVYYESRNKNSVA	NASTREE	QDYHRLPLS	GP_HC
no signal	0 of 6	KVYQSHLYESRNKNSVA	NASTRES	QQYHRLPLS	GP_Gen
0.99	6 of 6	KVSEFMKGLMMRTDSIA	DNVTRYN	QQYDRLPLS	En_Gen
0.28	6 of 6	KLSQSVLYEMRMKNSVA	QAVTRMS	QQYHRLPLS	GP_Gibbs
-0.14	6 of 6	SISGFMKTLSSHKNSVA	DMTNRED	QQYDRLPLS	En_Gen
1.97	6 of 6	KLIQSVAMMSRNKDSIA	DNSTRES	QQYHRLPLS	En_HC
0.76	6 of 6	KLSLNLNDMDARMWNVA	EGNQLKA	QDYHRLPLH	En_Gibbs
0.88	6 of 6	MITDDELTEGNDRNNIA	HNNVAED	QQYQQLPLV	En_Gibbs
0.91	6 of 6	SLAYTQHFGFQQEKAIA	EVATREQ	QQYFRLPLT	En_Gibbs
-0.41	6 of 6	KLEMSVLYESRNKNSVA	NASTRES	QQYHRLPLS	GP_Gen
0.05	6 of 6	KSRQSQEYESRNKNSVA	HASTRED	QQYHRLPLS	GP_HC
1.21	5 of 6	KLAMILSMEFGTYHGVA	DAEHKAD	QQYNRLPLS	En_Gibbs
0.45	6 of 6	KSSDSVGYESRNKNSIA	RASTRES	QQYHRLPLS	Ctrl
no signal	0 of 6	KLSMSSLMESRNKNSVA	ENSTRES	QHYHRLPLS	En_HC
no signal	0 of 6	MISQVLNTLTREGNNVA	DLTERYD	QQYFRLPLS	En_Gen
0.10	6 of 6	KLEFSVDYEDRNKNAVA	QASTREK	QQYHRLPLS	GP_Gibbs
0.06	6 of 6	TLSQSMDTTSRNVNSVA	DLTTRGN	QQYHRLPLS	En_HC
0.18	6 of 6	FMSQSWLMEGRNDNSVA	SASTRED	QQYHRLPLS	GP_Gibbs
0.39	5 of 6	IVSQLMLWGMHVKNSIA	EAELRLN	QQYDRLPLF	En_Gen
-0.14	6 of 6	KLSQSDLMESRNKNSVA	EASTRES	QQYHRLPLS	GP_Gen
-0.32	6 of 6	KVSQMEPYEERNKNNVA	NASTRMS	QQYHRLPLS	GP_Gibbs
no signal	0 of 6	QLSGPMMSESKNKNSVA	EFSTRGS	QQYHRLPLS	En_HC
0.47	6 of 6	KLPAATMQESVSKNSVA	ELSTRGS	QQYHRLPLS	En_HC
0.22	6 of 6	MISDLTMYGSRNKNSVA	DLSARGS	QQYHRLPLS	En_HC
1.11	6 of 6	MFALDQDSMGDAKNSIA	DRNTKAH	QQYSRLPLV	En_Gibbs
2.02	1 of 6	IVSQLMLWGYHAKNSIA	EASTRFN	QQYDRLPLF	En_Gen
no signal	0 of 6	KLWMIFFEGQQELSAVA	NAGTLVQ	QQYNVLPLS	En_Gibbs
-0.11	6 of 6	KFSQSELYESRTKNGVA	NASTRES	QQYHRLPLS	GP_HC
0.83	6 of 6	TLTQVTMVESYNKDSVA	QASTREE	QDYHRLPLS	En_HC
0.38	6 of 6	NIYQAMHTLSQMKDNVA	DVNERGQ	QQYYRLPLS	En_Gen
1.32	6 of 6	HITYGMMVAGRHSKSIA	QAETRAK	QQYDRLPLA	En_Gen

The last 12 entries again:

CDR-L1	CDR-L2	CDR-L3	group	log10 Kd (nM), mean	replicates with signal
KLSQSDLMESRNKNSVA	EASTRES	QQYHRLPLS	GP_Gen	-0.14	6 of 6
KVSQMEPYEERNKNNVA	NASTRMS	QQYHRLPLS	GP_Gibbs	-0.32	6 of 6
QLSGPMMSESKNKNSVA	EFSTRGS	QQYHRLPLS	En_HC	no signal	0 of 6
KLPAATMQESVSKNSVA	ELSTRGS	QQYHRLPLS	En_HC	0.47	6 of 6
MISDLTMYGSRNKNSVA	DLSARGS	QQYHRLPLS	En_HC	0.22	6 of 6
MFALDQDSMGDAKNSIA	DRNTKAH	QQYSRLPLV	En_Gibbs	1.11	6 of 6
IVSQLMLWGYHAKNSIA	EASTRFN	QQYDRLPLF	En_Gen	2.02	1 of 6
KLWMIFFEGQQELSAVA	NAGTLVQ	QQYNVLPLS	En_Gibbs	no signal	0 of 6
KFSQSELYESRTKNGVA	NASTRES	QQYHRLPLS	GP_HC	-0.11	6 of 6
TLTQVTMVESYNKDSVA	QASTREE	QDYHRLPLS	En_HC	0.83	6 of 6
NIYQAMHTLSQMKDNVA	DVNERGQ	QQYYRLPLS	En_Gen	0.38	6 of 6
HITYGMMVAGRHSKSIA	QAETRAK	QQYDRLPLA	En_Gen	1.32	6 of 6